Data on 1 substance can be found in patent US9840494B2, “Quinazoline derivative” (Tianjin Hemay Oncology Pharmaceutical Co., Ltd., priority 2013, dated 2017).

The test deals with T1, EGFR (Homo sapiens, UniProt P00533).
T1 construct: purchased Invitrogen Company PV3872
The experiment in a line: Inhibitory effect on tyrosine kinase activity of EGFR. Type of test: biochemical. The settings on record: EGFR 40 ng/ml, ATP 10 μM, 30 min. The method, then:
EGFR: Invitrogen Company, Catalogue No. PV3872
pGT (poly(glutamic acid-tyrosine)): Sigma-Aldrich Company, Catalogue No. P0275
The assay method is briefly described as follows.
3.1.1 At 4° C., 96-well microtiter plate was coated with 0.2 mg/mL pGT (as the substrate of enzyme) dissolved in PBS (phosphate buffer) overnight. Unbound pGT was washed away with a washing solution (0.05% Tween −20 in PBS), and the plate was dried in the air at room temperature for 2 h. […]
3.1.3 A final concentration of 1% SDS (sodium dodecyl sulfate) was added to terminate the reaction. […] OD value, which is positively correlated with the phosphorylation degree of tyrosine residues of pGT, was measured at 450 nm
3.2 The concentrations of the kinase and substrate ATP were determined with reference to the literature “Optimization of a LanthaScreen Kinase assay for EGFR (ErbB1)”(https://tools.lifetechnologies.com/content/sfs/manuals/EGFR_LanthaScreen_actity_Europium.pdf), published by Invitrogen Corporation. […]
The mean value of inhibition rate and SD (standard deviation) were determined by duplicate wells. […]

For the substance “N-[4-(3-chloro-4-fluorophenylamino)-7-(2-methoxyethoxy)quinazolin-6-yl]-2-[1-(2-methoxyethyl)piperidin-4-ylidene]acetamide diphosphate [Compound 7]”, the IC50 – broadly, the concentration that gives 50% inhibition – was determined as 0.5 nM.
